The list shows a part of the results, in another mix than the full data. The source made the active and inactive calls. Cut-off read from the data, not from the text of the source: active = activation mostly above about 9.7% (no sharp cut-off); inconclusive = no clear call, values can overlap the other calls; inactive = mostly below about 3.7%.

The nature of the experiment: induces V. cholerae light production without autoinducers, primary screen, BH1578 luxS cqsA deficient, single point (AID 588436). As to conditions: V. cholerae BH1578 lux reporter, luminescence, 6 h; at 18.7 µM; stronger effect = higher value.
Take `CCC(=O)N(c1ccccc1)C1(COC)CCN(CCn2nnn(CC)c2=O)CC1`: the activation was inactive: -0.488%.

On to `CCC(=O)N(c1ccccc1)C1(COC)CCN(CCc2cccs2)CC1`, for which the activation is inactive: -0.156%.

The record behind these values is PubChem BioAssay AID588436 (Broad Institute, 2011).
